Positions count from the first letter of the chain named. Numbers in names are those of the source.

The labels stand for the following.
B1: N-ethylmaleimide-sensitive factor (NSF), wild type, P18708 E216A (protein)
chain: MAGRSMQAARCPTDELSLSNCAVVSEKDYQSGQHVIVRTSPNHKYIFTLRTHPSVVPGSVAFSLPQRKWAGLSIGQEIEVALYSFDKAKQCIGTMTIEIDFLQKKNIDSNPYDTDKMAAEFIQQFNNQAFSVGQQLVFSFNDKLFGLLVKDIEAMDPSILKGEPASGKRQKIEVGLVVGNSQVAFEKAENSSLNLIGKAKTKENRQSIINPDWNFAKMGIGGLDKEFSDIFRRAFASRVFPPEIVEQMGCKHVKGILLYGPPGCGKTLLARQIGKMLNAREPKVVNGPEILNKYVGESEANIRKLFADAEEEQRRLGANSGLHIIIFDEIDAICKQRGSMAGSTGVHDTVVNQLLSKIDGVEQLNNILVIGMTNRPDLIDEALLRPGRLEVKMEIGLPDEKGRLQILHIHTARMRGHQLLSADVDIKELAVETKNFSGAELEGLVRAAQSTAMNRHIKASTKVEVDMEKAESLQVTRGDFLASLENDIKPAFGTNQEDYASYIMNGIIKWGDPVTRVLDDGELLVQQTKNSDRTPLVSVLLEGPPHSGKTALAAKIAEESNFPFIKICSPDKMIGFSETAKCQAMKKIFDDAYKSQLSCVVVDDIERLLDYVPIGPRFSNLVLQALLVLLKKAPPQGRKLLIIGTTSRKDVLQEMEMLNAFSTTIHVPNIATGEQLLEALELLGNFKDKERTTIAQQVKGKKVWIGIKKLLMLIEMSLQMDPEYRVRKFLALLREEGASPLDFD
B2: N-ethylmaleimide-sensitive factor (NSF), wild type, P18708 M218A (protein)
chain: B1 chain with A216E, M218A
B3: N-ethylmaleimide-sensitive factor (NSF), wild type, P18708 E203A (protein)
chain: B1 chain with E203A, A216E
B4: N-ethylmaleimide-sensitive factor (NSF), wild type, P18708 D212A (protein)
chain: B1 chain with D212A, A216E
B5: N-ethylmaleimide-sensitive factor (NSF), wild type, P18708 P211A (protein)
chain: B1 chain with P211A, A216E
B6: N-ethylmaleimide-sensitive factor (NSF), wild type, P18708 N204A (protein)
chain: B1 chain with N204A, A216E
B7: N-ethylmaleimide-sensitive factor (NSF), wild type, P18708 W213A (protein)
chain: B1 chain with W213A, A216E
B8: N-ethylmaleimide-sensitive factor (NSF), wild type, P18708 F215A (protein)
chain: B1 chain with F215A, A216E
B9: N-ethylmaleimide-sensitive factor (NSF), wild type, P18708 I209A (protein)
chain: B1 chain with I209A, A216E
B10: N-ethylmaleimide-sensitive factor (NSF), wild type, P18708 I208A (protein)
chain: B1 chain with I208A, A216E
B11: N-ethylmaleimide-sensitive factor (NSF), wild type, P18708 S207A (protein)
chain: B1 chain with S207A, A216E
B12: N-ethylmaleimide-sensitive factor (NSF), wild type, P18708 N214A (protein)
chain: B1 chain with N214A, A216E
B13: N-ethylmaleimide-sensitive factor (NSF), wild type, P18708 N210A (protein)
chain: B1 chain with N210A, A216E
B14: N-ethylmaleimide-sensitive factor (NSF), wild type, P18708 K217A (protein)
chain: B1 chain with A216E, K217A
B15: N-ethylmaleimide-sensitive factor (NSF), wild type, P18708 Q206A (protein)
chain: B1 chain with Q206A, A216E

In the experiment the target is MBP-SNARE/α-SNAP complex, P63045;P32851;P60881;P81125. Description: pull-down with amylose magnetic beads, SDS-PAGE, densitometry (ImageJ). Particulars: chain shown with the change, ADP-AlFx state, parent: est. 1.0, read off a plot.
Regarding B1, the ratio to parent was determined as 0. B2: the ratio to parent was 0.68. For B3 the value was 0.73. For B4 the value was 0.99.

As for B5, the ratio to parent turned out to be 0.34. As for B6, the figure is 0.93. B7: the ratio to parent is 0.43.

B8: the ratio to parent stood at 0.54.

For B9, the ratio to parent is 0.54. As for B10, the figure is 0.64.

In the case of B11, the ratio to parent was found to be 1.

On to B12, for which the ratio to parent stood at 0.73. With B13, the ratio to parent came to 0.65.

As to B14, the ratio to parent stood at 0.57. As for B15, the figure is 0.75.

Values taken from paper PMC3646813.
